Columns and labels:
[1] = target: T1, ZAP-70 tyrosine kinase (Homo sapiens, UniProt P43403); experiment: Kinase substrate profiling on contact photo-transferred protein microarray, ZAP-70; assay type: biochemical; settings: plus ATP kinase reaction 30 min 37° C.; anti-phosphotyrosine detection
T1 construct: purchased Invitrogen Corporation
T1 sequence (P43403 1-619): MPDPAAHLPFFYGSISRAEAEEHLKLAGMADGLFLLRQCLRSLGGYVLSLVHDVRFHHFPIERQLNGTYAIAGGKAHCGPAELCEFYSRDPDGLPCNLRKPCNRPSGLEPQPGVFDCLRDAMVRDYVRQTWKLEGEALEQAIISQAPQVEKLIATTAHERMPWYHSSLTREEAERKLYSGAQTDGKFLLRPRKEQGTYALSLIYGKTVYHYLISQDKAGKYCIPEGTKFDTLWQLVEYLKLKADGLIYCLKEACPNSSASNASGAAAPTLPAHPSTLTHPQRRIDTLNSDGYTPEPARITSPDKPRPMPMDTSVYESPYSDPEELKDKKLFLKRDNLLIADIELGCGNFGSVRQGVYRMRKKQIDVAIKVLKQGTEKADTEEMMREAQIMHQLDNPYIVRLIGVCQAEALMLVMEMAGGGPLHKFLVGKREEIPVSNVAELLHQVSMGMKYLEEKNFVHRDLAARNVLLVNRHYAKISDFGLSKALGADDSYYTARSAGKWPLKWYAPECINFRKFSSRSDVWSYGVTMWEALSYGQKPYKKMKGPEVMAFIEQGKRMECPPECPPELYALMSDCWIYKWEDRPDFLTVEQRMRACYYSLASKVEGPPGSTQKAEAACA

[2] = target: T2, Src pp^60 tyrosine kinase (Homo sapiens, UniProt P12931); experiment: Kinase substrate profiling on contact photo-transferred protein microarray, Src pp^60; assay type: biochemical; settings: plus ATP kinase reaction 30 min 37° C.; anti-phosphotyrosine detection
T2 construct: purchased Invitrogen Corporation

phosphorylation of photo-transferred protein (substrate) by ZAP-70 [1]: heavily phosphorylate | phosphorylation of photo-transferred protein (substrate) by Src pp^60 [2]: heavily phosphorylate
Substance: MDM: ubiquitin-protein ligase E3 MDM2, human, cell-free expressed, PC-biotin labeled

Reference: patent publication US20090264298A1, “Methods for enriching subpopulations” (AMBERGEN, Inc., priority 2007, published 2009)
